Values quoted from earlier work, collected in US20260015328A1, “ATM KINASE INHIBITORS” (Eberhard Karls Universität Tübingen, priority 2023, published 2026).

Amino acid sequences for entries named in this document (tags omitted).
UniProt Q5S007, whole entry, species assumed: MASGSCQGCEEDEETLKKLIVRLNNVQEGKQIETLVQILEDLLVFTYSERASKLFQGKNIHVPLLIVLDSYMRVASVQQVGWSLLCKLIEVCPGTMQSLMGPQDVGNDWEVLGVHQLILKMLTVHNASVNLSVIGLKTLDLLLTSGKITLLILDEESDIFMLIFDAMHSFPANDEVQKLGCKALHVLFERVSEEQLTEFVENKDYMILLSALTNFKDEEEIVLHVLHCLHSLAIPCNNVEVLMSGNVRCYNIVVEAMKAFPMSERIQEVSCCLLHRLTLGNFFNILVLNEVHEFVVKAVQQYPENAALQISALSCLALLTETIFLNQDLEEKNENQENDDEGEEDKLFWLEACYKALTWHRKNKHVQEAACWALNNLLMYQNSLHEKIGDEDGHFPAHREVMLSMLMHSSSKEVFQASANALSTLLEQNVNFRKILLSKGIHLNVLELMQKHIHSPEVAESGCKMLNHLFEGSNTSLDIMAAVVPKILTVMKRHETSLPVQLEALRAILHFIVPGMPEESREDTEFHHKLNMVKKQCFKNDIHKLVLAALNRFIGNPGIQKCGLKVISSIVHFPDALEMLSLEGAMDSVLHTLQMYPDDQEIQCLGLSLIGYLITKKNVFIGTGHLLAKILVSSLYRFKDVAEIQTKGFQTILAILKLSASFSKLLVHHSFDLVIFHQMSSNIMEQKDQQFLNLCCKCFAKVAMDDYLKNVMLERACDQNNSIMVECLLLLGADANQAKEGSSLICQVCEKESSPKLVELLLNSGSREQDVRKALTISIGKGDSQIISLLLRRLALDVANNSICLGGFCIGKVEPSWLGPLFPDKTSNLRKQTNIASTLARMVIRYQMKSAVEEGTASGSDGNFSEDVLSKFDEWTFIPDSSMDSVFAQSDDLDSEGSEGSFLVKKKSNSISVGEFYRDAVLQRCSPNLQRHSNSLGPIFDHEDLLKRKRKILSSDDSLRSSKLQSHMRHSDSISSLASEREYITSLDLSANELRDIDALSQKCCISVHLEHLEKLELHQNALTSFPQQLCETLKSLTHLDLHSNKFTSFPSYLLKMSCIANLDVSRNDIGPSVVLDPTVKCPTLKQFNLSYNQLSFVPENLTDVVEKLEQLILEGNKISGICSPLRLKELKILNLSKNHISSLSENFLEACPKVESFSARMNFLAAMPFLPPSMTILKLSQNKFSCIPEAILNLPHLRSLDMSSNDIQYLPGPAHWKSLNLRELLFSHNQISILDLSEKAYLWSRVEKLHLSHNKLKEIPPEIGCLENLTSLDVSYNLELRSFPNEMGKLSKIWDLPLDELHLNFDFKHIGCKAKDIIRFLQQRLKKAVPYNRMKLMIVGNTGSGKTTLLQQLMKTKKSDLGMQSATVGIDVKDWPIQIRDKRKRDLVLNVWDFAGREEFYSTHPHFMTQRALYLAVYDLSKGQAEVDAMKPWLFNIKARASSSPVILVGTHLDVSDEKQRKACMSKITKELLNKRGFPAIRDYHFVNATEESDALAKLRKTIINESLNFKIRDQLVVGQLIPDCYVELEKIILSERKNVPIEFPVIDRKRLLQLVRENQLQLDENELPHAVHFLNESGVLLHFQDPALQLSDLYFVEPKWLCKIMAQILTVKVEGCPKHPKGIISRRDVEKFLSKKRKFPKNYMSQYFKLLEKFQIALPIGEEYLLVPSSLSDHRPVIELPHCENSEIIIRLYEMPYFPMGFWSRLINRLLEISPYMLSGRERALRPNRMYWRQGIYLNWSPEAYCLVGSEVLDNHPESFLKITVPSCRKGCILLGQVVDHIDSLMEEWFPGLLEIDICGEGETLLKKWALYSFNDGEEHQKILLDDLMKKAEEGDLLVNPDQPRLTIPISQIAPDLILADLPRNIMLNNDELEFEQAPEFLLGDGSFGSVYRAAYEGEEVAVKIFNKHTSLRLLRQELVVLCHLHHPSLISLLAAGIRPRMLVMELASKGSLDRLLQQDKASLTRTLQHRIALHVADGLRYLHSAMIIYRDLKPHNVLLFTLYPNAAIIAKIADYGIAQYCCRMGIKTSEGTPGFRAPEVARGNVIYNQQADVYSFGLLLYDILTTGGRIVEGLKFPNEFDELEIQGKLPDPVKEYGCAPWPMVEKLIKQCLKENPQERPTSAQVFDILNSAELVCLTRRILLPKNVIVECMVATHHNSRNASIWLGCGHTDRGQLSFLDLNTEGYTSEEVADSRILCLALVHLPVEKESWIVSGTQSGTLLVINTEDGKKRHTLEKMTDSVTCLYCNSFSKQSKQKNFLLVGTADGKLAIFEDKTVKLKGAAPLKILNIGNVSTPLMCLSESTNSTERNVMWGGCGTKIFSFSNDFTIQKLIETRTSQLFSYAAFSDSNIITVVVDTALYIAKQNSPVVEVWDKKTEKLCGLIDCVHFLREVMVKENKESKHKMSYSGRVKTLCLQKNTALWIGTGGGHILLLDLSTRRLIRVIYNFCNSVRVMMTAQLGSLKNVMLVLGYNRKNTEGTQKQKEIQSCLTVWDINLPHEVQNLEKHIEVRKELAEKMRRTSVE

Legend:
[1] = biological target: LRRK2 (Homo sapiens (Human), UniProt Q5S007); conditions: cited from earlier work
[2] = biological target: mTOR (Homo sapiens (Human), UniProt P42345); conditions: cited from earlier work

## CN(C)CCCOc1ccc(-c2ccc3ncc4c(c3c2)n(C2CCOCC2)c(=O)n4C)cn1 [AZD0156, 8-{6-[3-(Dimethylamino)propoxy]pyridin-3-yl}-3-methyl-1-(tetrahydro-2H-pyran-4-yl)-1,3-dihydro-2H-imidazo[4,5-c]quinolin-2-one]
[1]
  LRRK2 inhibition at 1 μM: ≥ 87%
[2]
  mTOR inhibition at 1 μM: ≥ 87%
